Source: PMC4332848 (Clinical cancer research : an official journal of the …, 2013)

Assay: Serum vorinostat pharmacokinetics
Format: in vivo, human
Details: Mean, N 20, first 200 mg oral dose day 1

Question: Which Vd/F does the source give for `O=C(CCCCCCC(=O)Nc1ccccc1)NO` [vorinostat, suberoylanilide hydroxamic acid] here?
Answer: 1,003 L/h
